The data set deals with ATP-dependent translocase ABCB1 (Homo sapiens, UniProt P08183).

Protein sequences, listed by entry. Tags and fused reporters are not part of them.
UniProt P08183, whole entry: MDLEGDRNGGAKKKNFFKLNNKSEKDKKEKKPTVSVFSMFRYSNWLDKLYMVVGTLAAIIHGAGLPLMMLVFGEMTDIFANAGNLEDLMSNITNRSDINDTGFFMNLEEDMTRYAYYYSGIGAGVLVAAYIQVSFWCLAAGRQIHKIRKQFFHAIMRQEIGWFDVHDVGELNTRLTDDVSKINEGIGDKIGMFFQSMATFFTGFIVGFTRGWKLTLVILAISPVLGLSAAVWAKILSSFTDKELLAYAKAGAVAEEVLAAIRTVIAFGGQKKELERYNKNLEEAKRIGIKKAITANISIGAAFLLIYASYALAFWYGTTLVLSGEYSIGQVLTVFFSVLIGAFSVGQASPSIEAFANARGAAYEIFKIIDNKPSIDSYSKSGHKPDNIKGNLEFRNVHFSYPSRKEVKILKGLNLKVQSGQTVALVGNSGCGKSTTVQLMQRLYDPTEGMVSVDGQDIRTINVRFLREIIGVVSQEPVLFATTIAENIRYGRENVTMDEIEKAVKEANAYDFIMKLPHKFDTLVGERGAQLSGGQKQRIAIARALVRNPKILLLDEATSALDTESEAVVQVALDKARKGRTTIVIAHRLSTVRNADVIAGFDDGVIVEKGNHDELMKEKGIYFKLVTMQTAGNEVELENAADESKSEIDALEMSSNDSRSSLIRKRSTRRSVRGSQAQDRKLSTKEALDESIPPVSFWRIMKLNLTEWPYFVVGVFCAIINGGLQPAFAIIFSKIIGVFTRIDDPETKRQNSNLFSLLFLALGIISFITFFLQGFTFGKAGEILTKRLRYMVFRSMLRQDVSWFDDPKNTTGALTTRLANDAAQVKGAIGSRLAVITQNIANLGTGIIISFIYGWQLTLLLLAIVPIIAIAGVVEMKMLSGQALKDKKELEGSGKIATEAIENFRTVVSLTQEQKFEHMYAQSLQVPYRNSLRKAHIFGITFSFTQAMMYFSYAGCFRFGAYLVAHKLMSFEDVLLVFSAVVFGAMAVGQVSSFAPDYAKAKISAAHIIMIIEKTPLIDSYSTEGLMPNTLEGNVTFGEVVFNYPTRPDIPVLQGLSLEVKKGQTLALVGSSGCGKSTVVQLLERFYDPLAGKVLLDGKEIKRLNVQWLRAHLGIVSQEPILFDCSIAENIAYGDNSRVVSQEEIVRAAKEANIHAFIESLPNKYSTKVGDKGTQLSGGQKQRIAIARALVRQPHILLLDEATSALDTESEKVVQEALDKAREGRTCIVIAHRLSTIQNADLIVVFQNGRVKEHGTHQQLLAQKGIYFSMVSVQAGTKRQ

SMILES strings stand for the structures.

As for `O[C@@H](COc1cccc2ncccc12)CN1CCN([C@@H]2c3ccccc3[C@@H]3[C@H](c4ccccc42)C3(Cl)Cl)CC1`, the IC50 was found to be 400 nM.

Values taken from ChEMBL document CHEMBL3352492, “Selenorhodamine photosensitizers for photodynamic therapy of P-glycoprotein-expressing cancer cells” (J Med Chem, 2014).
